Publication PMC5392334, “Discovery and characterization of a novel irreversible EGFR mutants selective and potent kinase inhibitor CHMFL-EGFR-26 with a distinct binding mode” (Oncotarget, 2017)

Columns and labels:
[1] = test system: EGFR Y1068 phosphorylation in BaF3-FL-EGFR-L858R -T790M cells; conditions: BaF3-TEL-EGFR versus BaF3-FL-EGFR-L858R -T790M
[2] = test system: EGFR kinase wt/mutants expressing BaF3 isogenic cell lines; conditions: all sensitive mutants, BaF3 (GI50)

SMILES: C=CC(=O)N1CCC[C@@H](n2nc(-c3ccc(OCc4cccc(C)n4)c(Cl)c3)c3c(N)ncnc32)C1 [CHMFL-EGFR-26]
- selectivity between the EGFR wt and EGFRL858R/T790M (Y1068 phosphorylation EC50) [1]: 15 fold
- loss of activity when C797S mutant was introduced [2]: 50-10000 folds
